Data published in PubChem BioAssay AID1224817 (Yan Lab, Georgia Cancer Center, Augusta University, 2016).
Only a part is listed here, and it is no random draw. Activity calls are given as the source filed them.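 The calls were made as follows: active = log2 luciferase ratio at or below -0.5849, meaning signal at two thirds of solvent-only control or lower; inactive = the rest.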

Assay: inhibitors of EIF4E gene expression, primary screen, cell-based, HT1080, luciferase reporter (AID 1224817);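 also: luciferase reports endogenous eIF4E expression since it is co-expressed from the native EIF4E locus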
Details: HT1080 EIF4E-luc2 knock-in reporter, 16 h, at 2.5 µM, hits give low values

Row | SMILES | log2 luciferase activity ratio
1 | NNC(NN)NN.n1nc(-c2nn[nH]n2)n[nH]1 | inactive: -0.344
2 | N1=C(c2nnc(-c3nn[nH]n3)nn2)NNN1 | inactive: -0.0416
